What follows are molecules tested against EGFR T790M/L858R (Homo sapiens (Human), UniProt P00533, L858R/T790M) (assay: Omnia assay, EGFR (T790M/L858R) active enzyme). Settings: biochemical, WT EGFR vs EGFR T790M/L858R.

| Ratio WT/mutant | Structure (SMILES) |
| --- | --- |
| 1 | C=CC(=O)Nc1cccc(Nc2nc(Nc3ccc(N4CCN(C(=O)CO)CC4)cc3OC(F)F)ncc2C(F)(F)F)c1 [Compound I-31, N-(3-(2-(2-(difluoromethoxy)-4-(4-(2-hydroxyacetyl)piperazin-1-yl)phenylamino)-5-(trifluoromethyl)pyrimidin-4-ylamino)phenyl)acrylamide] |
| >50 | C=CC(=O)Nc1cccc(Nc2nc(Nc3ccc(N4CCCN(C(=O)OC(C)(C)C)CC4)cc3OC)ncc2C(F)(F)F)c1 [Compound I-44, tert-butyl 4-(4-(4-(3-acrylamidophenylamino)-5-(trifluoromethyl)pyrimidin-2-ylamino)-3-methoxyphenyl)-1,4-diazpane-1-carboxylate] |
| >1 | C=CC(=O)Nc1cccc(Nc2nc(Nc3ccc(N4CCN(C(C)=O)CC4)cc3OC(F)F)ncc2C(F)(F)F)c1 [Compound I-32, N-(3-(2-(4-(4-acetylpiperazin-1-yl)-2-(difluoromethoxy)phenylamino)-5-(trifluoromethyl)pyrimidin-4-ylamino)phenyl)acrylamide] |
| >50 | C=CC(=O)Nc1cccc(Oc2nc(Nc3ccc(N4CCN(S(C)(=O)=O)CC4)cc3OC)ncc2C(F)(F)F)c1 [Compound I-22, N-(3-(2-(2-methoxy-4-(4-(methylsulfonyl)piperazin-1-yl)phenylamino)-5-(trifluoromethyl)pyrimidin-4-yloxy)phenyl)acrylamide] |
| >25 | C=CC(=O)Nc1cccc(Oc2nc(Nc3ccc(N4CCCOCC4)cc3OC)ncc2Cl)c1 [Compound I-37, N-(3-(5-chloro-2-(2-methoxy-4-(1,4-oxazepan-4-yl)phenylamino)pyrimidin-4-yloxy)phenyl)acrylamide] |
| >25 | C=CC(=O)Nc1cccc(Oc2nc(Nc3ccc(N4CCN(S(C)(=O)=O)CC4)cc3OC)ncc2Cl)c1 [Compound I-26, N-(3-(5-chloro-2-(2-methoxy-4-(4-(methylsulfonyl)piperazin-1-yl)phenylamino)pyrimidin-4-yloxy)phenyl)acrylamide] |
| >35 | C=CC(=O)Nc1cccc(Oc2nc(Nc3ccc(N4CCN(C(=O)NC)CC4)cc3OC)ncc2C(F)(F)F)c1 [Compound I-21, 4-(4-(4-(3-acrylamidophenoxy)-5-(trifluoromethyl)pyrimidin-2-ylamino)-3-methoxyphenyl)-N-methylpiperazine-1-carboxamide] |
| >25 | C=CC(=O)Nc1cccc(Oc2nc(Nc3ccc(N4CCOCC4)cc3OC(F)F)ncc2Cl)c1 [Compound I-36, N-(3-(5-chloro-2-(2-(difluoromethoxy)-4-morpholinophenylamino)pyrimidin-4-yloxy)phenyl)acrylamide] |
| >10 | C=CC(=O)Nc1cccc(Nc2nc(Nc3ccc(N4CCN(C(=O)NC)CC4)cc3OC)ncc2C(F)(F)F)c1 [Compound I-28, 4-(4-(4-(3-acrylamidophenylamino)-5-(trifluoromethyl)pyrimidin-2-ylamino)-3-methoxyphenyl)-N-methylpiperazine-1-carboxamide] |
| >15 | C=CC(=O)Nc1cccc(Nc2nc(Nc3ccc(N4CCOCC4)cc3OC)ncc2Cl)c1 [Compound I-15, N-(3-(5-chloro-2-(2-methoxy-4-morpholinophenylamino)pyrimidin-4-ylamino)phenyl)acrylamide] |
| >25 | C=CC(=O)Nc1cccc(Oc2nc(Nc3ccc(N4CCN(C(=O)CC(C)(C)C)CC4)cc3OC)ncc2Cl)c1 [Compound I-23, N-(3-(5-chloro-2-(4-(4-(3,3-dimethylbutanoyl)piperazin-1-yl)-2-methoxyphenylamino)pyrimidin-4-yloxy)phenyl)acrylamide] |
| >50 | C=CC(=O)Nc1cccc(Nc2nc(Nc3ccc(N4CCCOCC4)cc3OC)ncc2C(F)(F)F)c1 [Compound I-38, N-(3-(2-(2-methoxy-4-(1,4-oxazepan-4-yl)phenylamino)-5-(trifluoromethyl)pyrimidin-4-ylamino)phenyl)acrylamide] |
| >50 | C=CC(=O)Nc1cccc(Oc2nc(Nc3ccc(N4CCN(C(=O)OC(C)(C)C)CC4)cc3OC(F)(F)F)ncc2Cl)c1 [Compound I-47, tert-butyl 4-(4-(4-(3-acrylamidophenoxy)-5-chloropyrimidin-2-ylamino)-3-(trifluoromethoxy)phenyl)piperazine-1-carboxylate] |
| >20 | C=CC(=O)Nc1cccc(Nc2nc(Nc3ccc(N4CCN(C(C)=O)CC4)cc3OC)ncc2Br)c1 [Compound I-40, N-(3-(2-(4-(4-acetylpiperazin-1-yl)-2-methoxyphenylamino)-5-bromopyrimidin-4-ylamino)phenyl)acrylamide] |
| >25 | C=CC(=O)Nc1cccc(Nc2nc(Nc3ccc(N4CCOCC4)cc3OC(F)F)ncc2C(F)(F)F)c1 [Compound I-14, N-(3-(2-(2-(difluoromethoxy)-4-morpholinophenylamino)-5-(trifluoromethyl)pyrimidin-4-ylamino)phenyl)acrlamide] |

From patent publication US11096942B2, “Heterocyclic compounds and uses thereof” (Celgene CAR LLC, priority 2010, dated 2021)
